This is a selection; strong and weak results do not stand in their true shares. Calls of active or inactive are those of the source.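 Rule for the calls: active = lipid droplet intensity inhibited by at least 50%, with more than 500 cells counted; inconclusive = wells with under 300 cells, treated as cytotoxic; inactive = the rest.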
experiment: oleate-induced lipid droplet accumulation in AML12 cells – imaging, high-throughput imaging, BODIPY stain, primary screen (AID 1656); conditions: AML12 mouse hepatocytes, oleate lipid droplets, at 6.5 µM, hits give high values
Method in brief: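 Assay system: AML12 hepatocytes (mouse) / Also added: 100 µM oleic acid challenge / Times: overnight treatment with compound plus oleate / Detection: high-content imaging of BODIPY-stained droplets and DAPI nuclei / Evaluation: % inhibition of lipid droplet signal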

Q: For `CCCOc1ccc(C)cc1CN(CCCl)CCCl`, which inhibition is on record?
A: inactive: -8.4%

Q: Which inhibition does the source give for `CN1CCC(Nc2ccc(Cl)cc2)CC1` here?
A: inactive: -0.1%

Q: For `COc1cc(OC)cc(C(=O)NCC2(N3CCOCC3)CCCCC2)c1`, which inhibition is on record?
A: inactive: -23.9%

Q: Which inhibition does the source give for `COc1cccc(C(=O)N(c2cc(C)cc(C)c2)C2CCN(C(=O)OC(C)(C)C)CC2)c1` here?
A: inactive: 8.3%

Q: With `CCCOc1ccc(C(=O)NCC2(N(C)C)CCCCC2)cc1` as the molecule, how does the inhibition read?
A: inactive: -37.4%

Q: For `CC(C)(C)OC(=O)N1CCC(Nc2ccccc2)CC1`, which inhibition is on record?
A: inactive: 14%

Q: For `CN1CCC(Nc2ccc(F)c(Cl)c2)CC1`, which inhibition is on record?
A: inactive: -0.5%

Q: For `CCOc1ncccc1C(=O)NCC1(N2CCOCC2)CCCCC1`, which inhibition is on record?
A: inactive: -8.3%

Q: For `CN(C)c1ccc(C(=O)NCC2(N3CCCCC3)CCCCC2)cc1`, which inhibition is on record?
A: inactive: 3%

Q: For `CCN1CCC(Nc2cccc(F)c2)CC1`, which inhibition is on record?
A: inactive: 6.8%

Q: Which inhibition does the source give for `COc1cc(OC)cc(C(=O)NCC2(N3CCCCC3)CCCCC2)c1` here?
A: inactive: -13.5%

Q: For `CCCN1CCC(Nc2cc(OC)cc(OC)c2)CC1`, which inhibition is on record?
A: inactive: 0.2%

Q: With `c1ccc(CN2CCC(Nc3ccccc3)CC2)cc1` as the molecule, how does the inhibition read?
A: inactive: -13.3%

Q: With `CC(C)(C)OC(=O)N1CCC(N(C(=O)c2ccccc2)c2ccc(Cl)cc2)CC1` as the molecule, how does the inhibition read?
A: inactive: -15.2%

Q: For `N#Cc1ccc(C(=O)NCC2(N3CCCCC3)CCCCC2)cc1`, which inhibition is on record?
A: inactive: -7.5%

Q: With `O=C(OC1CN2CCC1CC2)C1c2ccccc2C=Cc2ccccc21` (stereo not drawn) as the molecule, how does the inhibition read?
A: inactive: -4.1%

Q: With `CCOC(=O)N1CCC(Nc2ccc(C)cc2)CC1` as the molecule, how does the inhibition read?
A: inactive: -0.2%

Q: For `COc1ccc(C(=O)NCC2(N3CCOCC3)CCCCC2)cc1OC`, which inhibition is on record?
A: inactive: -11.9%

Q: With `COc1cc(OC)c(C(=O)NCC2(N(C)C)CCCCC2)cc1OC` as the molecule, how does the inhibition read?
A: inactive: 3.4%

Q: With `CN(C)c1cccc(C(=O)NCC2(N3CCCCC3)CCCCC2)c1` as the molecule, how does the inhibition read?
A: inactive: 4.7%

Q: For `COc1ccc(CN(CCCl)CCCl)cc1Cl`, which inhibition is on record?
A: inactive: -7.5%

Q: Which inhibition does the source give for `CC(C)c1ccc(NC2CCN(C(=O)OC(C)(C)C)CC2)cc1` here?
A: inactive: -10%

Q: With `CN1CCN(CCOC(=O)C(O)(c2ccccc2)c2ccccc2)CC1` as the molecule, how does the inhibition read?
A: inactive: -3.7%

Q: For `COc1ccc(NC2CCN(C(=O)OC(C)(C)C)CC2)cc1`, which inhibition is on record?
A: inactive: 6.3%

Q: For `COc1cc(C(=O)NCC2(N3CCCCC3)CCCCC2)ccc1OC(F)F`, which inhibition is on record?
A: inactive: -51.9%

Q: For `O=C(NCC1(N2CCOCC2)CCCCC1)c1cc(=O)[nH]c2ccccc12`, which inhibition is on record?
A: inactive: 14.9%

Q: For `O=C(NCC1(N2CCCCC2)CCCCC1)c1cccc(C(F)(F)F)c1`, which inhibition is on record?
A: inactive: -4.9%

Q: For `O=C(NCC1(N2CCCCC2)CCCCC1)c1cccc([N+](=O)[O-])c1`, which inhibition is on record?
A: inactive: 13.9%

Q: With `CCN1CCC(Nc2ccc(Cl)cc2)CC1` as the molecule, how does the inhibition read?
A: inactive: -2.2%

Q: For `O=C(NCC1(N2CCCCC2)CCCCC1)c1ccc(OC(F)F)cc1`, which inhibition is on record?
A: inactive: 2.5%

Q: With `Cc1ccc(OCC(C)C)c(CN(CCCl)CCCl)c1` as the molecule, how does the inhibition read?
A: inactive: 0.8%

Q: For `CCOC(=O)N1CCC(Nc2cccc(C)c2)CC1`, which inhibition is on record?
A: inactive: -0.2%

Q: Which inhibition does the source give for `CCOC(=O)N1CCC(Nc2ccc(F)cc2)CC1` here?
A: inactive: 6.4%

Q: With `O=C(NCC1(N2CCCCC2)CCCCC1)c1ccc(F)cc1` as the molecule, how does the inhibition read?
A: inactive: -23.9%

Q: For `CCOc1ccc(C)cc1CN(CCCl)CCCl`, which inhibition is on record?
A: inactive: -24.2%

Q: Which inhibition does the source give for `CCOC(=O)N1CCC(Nc2ccc(OC)cc2)CC1` here?
A: inactive: 20.4%

Q: For `N#CC1(Nc2ccccc2)CCN(Cc2ccccc2)CC1`, which inhibition is on record?
A: inactive: -3.3%

Q: For `O=C(NCC1(N2CCOCC2)CCCCC1)c1cc2ccccc2o1`, which inhibition is on record?
A: inactive: -4%

Q: With `CSc1ccccc1C(=O)NCC1(N2CCCCC2)CCCCC1` as the molecule, how does the inhibition read?
A: inactive: 11.1%

Q: For `O=C(NCC1(N2CCCCC2)CCCCC1)c1ccc(=O)[nH]c1`, which inhibition is on record?
A: inactive: 7%

Q: With `CC(C)(C)OC(=O)N1CCC(N(C(=O)c2ccccc2)c2ccc(F)cc2)CC1` as the molecule, how does the inhibition read?
A: inactive: 21.9%

Q: With `COc1ccc(C(=O)NCC2(N3CCCCC3)CCCCC2)c(OC)c1OC` as the molecule, how does the inhibition read?
A: inactive: 9.5%

Q: For `COc1ccc(C(=O)NCC2(N3CCCCC3)CCCCC2)cc1`, which inhibition is on record?
A: inactive: -13.5%
